Laboratory results as given in patent US8173696B2, “Inhibitors of cysteine proteases and methods of use thereof” (Baylor University, priority 2007, dated 2012).

The chains behind the UniProt entries cited, without tags or fusion partners. Residues count along the entry.
UniProt P25779, 123-467: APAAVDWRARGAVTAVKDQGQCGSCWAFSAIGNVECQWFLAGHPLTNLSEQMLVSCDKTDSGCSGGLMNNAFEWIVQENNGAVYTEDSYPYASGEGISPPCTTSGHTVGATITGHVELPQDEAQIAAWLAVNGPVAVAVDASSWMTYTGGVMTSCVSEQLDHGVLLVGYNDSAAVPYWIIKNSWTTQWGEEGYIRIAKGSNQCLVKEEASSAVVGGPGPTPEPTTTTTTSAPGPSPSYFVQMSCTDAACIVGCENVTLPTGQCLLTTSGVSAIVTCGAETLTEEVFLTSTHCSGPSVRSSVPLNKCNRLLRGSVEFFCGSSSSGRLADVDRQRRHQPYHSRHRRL

Target: Cruzain (Trypanosoma cruzi, UniProt P25779)
Test: biochemical
Conditions: Table B; unit inferred
Method: Cruzain (0.1 nM) in 100 mM sodium acetate buffer (pH 5.50) containing 5 mM DTT was preincubated for 5 min at 25° C. with inhibitor.

- IC50: 240 nM
Compound: CC/C(=N\NC(N)=S)c1cccc(Br)c1 [Compound 5, 3-Bromopropiophenone thiosemicarbazone]
